{"source": "paper PMC10252707", "about": "“Zn^2+ and Cu^2+ Interaction with the Recognition Interface of ACE2 for SARS-CoV-2 Spike Protein” (2023)", "key": {"[1]": {"target": "Lys31 (UniProt position 31, …)", "assay": "potentiometry", "conditions": "0.1 M NaClO4"}, "[2]": {"target": "His34 (UniProt position 34, …)", "assay": "potentiometry", "conditions": "0.1 M NaClO4"}, "[3]": {"conditions": "298 K, none (4 mM HClO4 / NaClO4 medium, argon atmosphere), free peptide (no metal), 0.5 mM"}, "[4]": {"conditions": "298.2 K, none (HClO4 / NaClO4 medium, argon atmosphere), Cu(II)-bound peptide, metal:ligand 1:1.1, ligand 0.5 mM"}}}
{"protein": "LDKFNHEAED", "note": "[P29-38, peptide fragment 29-38 of angiotensin-converting enzyme 2 (ACE2) (Homo sapiens)]", "values": [{"measurement": "pKa", "setting": "[1]; [3]", "result": 10.21}, {"measurement": "pKa", "setting": "[1]; [4]", "result": 11.20}, {"measurement": "pKa", "setting": "[2]; [3]", "result": 6.84}, {"measurement": "pKa", "setting": "[2]; [4]", "result": 4.77}, {"measurement": "pKa", "setting": "[2]; 298.2 K, none (HClO4 / NaClO4 medium, argon atmosphere), Zn(II)-bound peptide, metal:ligand 1:1.1, ligand 0.5 mM", "result": 5.79}]}
